Results: PubChem BioAssay AID772 (SRMLSC, 2007)
The entries are a selection whose mix differs from that of the whole data set. Active and inactive are the calls of the source.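 The calls were made as follows: active = growth inhibition above 90%, meaning viable cell count cut by more than 90% versus vehicle controls; inactive = growth inhibition below 90%.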

Assay: HT29 colon tumor cell growth inhibition, primary screen, imaging, high content imaging, 72 h, CellTiter-Glo (AID 772)
Conditions: HCS imaging cell count, at 10 µM, stronger effect = higher value
In the case of Cc1ccc(OCC(=O)OC2CN3CCC2CC3)cc1 (configuration not stated), the growth inhibition is reported as inactive: -10.6%.
In the case of Cc1cccc(OCC(=O)OC2CN3CCC2CC3)c1 (configuration not stated), the growth inhibition is reported as inactive: 1.25%.
